Reference: patent US10512810B1, “Method for decontaminating skin exposed to toxic compounds” (dated 2019)

How the values were obtained:
[1] = DAM aging in PEG 200, degradation kinetics by 1H NMR with Arrhenius model; conditions: for k: predicted from Arrhenius model
[2] = DAM aging in water, degradation kinetics by 1H NMR with Arrhenius model; conditions: for k: predicted from Arrhenius model
[3] = DAM neat aging at 30, 50 and 70° C., 1H NMR; conditions: 6-7 weeks at 70° C.
[4] = Aging of DAM in bi-pack package, NMR spectra

**Q.** With diacetylmonoxime as the substance, how does the “increase of shelf life at 70° C., DAM separated from water versus in water” value ([1]; 70° C.) read?
**A.** 17 factor

**Q.** And the “A (Arrhenius pre-exponential factor)” value ([1]; DAM in PEG 200)?
**A.** 3.157e+17 day⁻¹

**Q.** What about the “E_a of DAM degradation (Arrhenius Thermal model)” value ([1]; DAM in PEG 200) of the same substance?
**A.** 30.8 kcal/mol

**Q.** What about the k ([1]; DAM in PEG 200, 20° C.) of the same substance?
**A.** 3.52e-06 day⁻¹

**Q.** And the k ([1]; DAM in PEG 200, 30° C.)?
**A.** 2.54e-05 day⁻¹

**Q.** What about the k ([1]; DAM in PEG 200, 50° C.) of the same substance?
**A.** 0.00029 day⁻¹

**Q.** What about the k ([1]; DAM in PEG 200, 70° C.) of the same substance?
**A.** 0.0101 day⁻¹

**Q.** What about the “shelf life at 70° C.” value ([1]; DAM separated from water (in PEG), 70° C.) of the same substance?
**A.** 68 days

**Q.** What about the “projected room temperature half-life” value ([1]; DAM stored with PEG (10% DAM in PEG, FIG. 7)) of the same substance?
**A.** hundreds of years

**Q.** What about the “aging by 1H NMR” value ([1]; DAM with PEG 200, 70° C., two weeks) of the same substance?
**A.** Some changes were seen

**Q.** What about the “temperature corresponding to a 4-year shelf life” value ([1]; water and DAM separated) of the same substance?
**A.** 50 °C

**Q.** And the “A (Arrhenius pre-exponential factor)” value ([2]; DAM in water)?
**A.** 1.611e+15 day⁻¹

**Q.** And the “E_a of DAM degradation (Arrhenius Thermal model)” value ([2]; DAM in water)?
**A.** 24.9 kcal/mol

**Q.** What about the “aging by 1H NMR, effect of potassium bicarbonate” value ([2]; DAM in water with potassium bicarbonate) of the same substance?
**A.** retarded somewhat

**Q.** What about the “aging by 1H NMR” value ([2]; DAM in water, 1 week at 70° C.) of the same substance?
**A.** rapidly aged

**Q.** What about the k ([2]; DAM in water, 20° C.) of the same substance?
**A.** 0.000447 day⁻¹

**Q.** What about the k ([2]; DAM in water, 30° C.) of the same substance?
**A.** 0.00143 day⁻¹

**Q.** And the k ([2]; DAM in water, 50° C.)?
**A.** 0.0374 day⁻¹

**Q.** What about the “shelf life at 70° C.” value ([2]; DAM in water, 70° C.) of the same substance?
**A.** 4 days

**Q.** What about the k ([2]; DAM in water, 70° C.) of the same substance?
**A.** 0.172 day⁻¹

**Q.** And the “projected room temperature half-life” value ([2]; DAM stored in water (10% DAM in water, FIG. 7))?
**A.** 2.5 years

**Q.** And the “temperature corresponding to a 4-year shelf life” value ([2]; water and DAM together)?
**A.** 20 °C

**Q.** And the “aging by 1H NMR” value [3]?
**A.** showed little propensity to age

**Q.** What about the “time at which degradation products first show in NMR” value ([4]; DAM in water (FIG. 8, peak 810)) of the same substance?
**A.** ≥ 2 weeks

**Q.** What about the “degradation in NMR without versus with potassium bicarbonate” value ([4]; FIG. 9, without Potassium Bicarbonate) of the same substance?
**A.** more than with Potassium Bicarbonate

**Q.** And the “degradation in NMR” value ([4]; bipack with DAM in PEG (FIG. 8))?
**A.** no degradation is present
